{"source": "patent US20060228754A1", "about": "(priority 1998, published 2006)", "key": {"[1]": {"target": "T1, human α-thrombin (Homo sapiens, UniProt P00734)", "conditions": "identified in the literature as an inhibitor; cited from earlier work"}, "[2]": {"target": "T1, human α-thrombin", "assay": "FC-MS screening against immobilized human α-thrombin"}}, "data": [{"smiles": "NC(N)=NCCC[C@H](NC(=O)[C@@H]1CCCN1C(=O)[C@H](N)Cc1ccccc1)C(=O)O", "values": [{"measurement": "Kd", "setting": "[1]", "result": 1000, "unit": "nM"}, {"measurement": "maximum intensity relative to the infusion concentration (roll-up effect)", "setting": "[2]; 1 μM fPR with 1 μM fPR-chloromethyl ketone, FIG. 16B", "result": "approximately 3 times"}, {"measurement": "V−V0 (in words)", "setting": "[2]; fresh column, void marker compound and peptide alone, 1 μM each", "result": "approximately twice the value measured from the mixture"}]}]}
